# Source: patent publication US20260209200A1, “SALTS OF A DIHYDROOROTATE DEHYDROGENASE (DHOD) INHIBITOR” (priority 2022, published 2026)
# Assay: Kinetic solubility of PP-001 salts in FaSSIF (HPLC)
# Format: physicochemical
# Settings: 4 mL FaSSIF, 25° C., target 2 mg/mL
# Procedure: Approximately 8 mg (calculated as freebase) of each salt was weighed out into each glass vial and then 4 ml of FaSSIF was added (target concentration was 2 mg/mL). The sample was kept stirring on a magnetic stirrer at a speed of I 00 RPM under 25° C. Then at the time points of initial, 0.5 hr, 1 hr, 2 hrs and 24 hrs, 0.5 mL of sample solution was transferred into 1.5 mL centrifugation tube and centrifuged at 12,000 RPM for 10 min. The supernatant was diluted by 50% ACN suitable and analyzed by HPLC.
# An HPLC method of testing solubility was performed as follows in Table A: […]
substance,measurement,setting,value
Zinc,Appearance after stirring for 24 hours,,suspension
same,Final pH,,6.49
same,"Solubility at different time points, 0.5 h",0.5 h,220 µg/mL
same,"Solubility at different time points, 1 h",1 h,210 µg/mL
same,"Solubility at different time points, 2 h",2 h,220 µg/mL
same,"Solubility at different time points, 24 h",listed as Zn,260 µg/mL
same,"Solubility at different time points, 24 h",listed as Zn cation,260 µg/mL
same,"Solubility at different time points, Initial",initial,190 µg/mL
